This is an account of results in ChEMBL document CHEMBL1131389, “Unusual synthesis of new glycine antagonists via sequential aldol condensation-lactonization-elimination reaction” (Bioorg Med Chem Lett, 1998).

In this assay the target is Glutamate receptor ionotropic, NMDA 1 (Rattus norvegicus) (UniProt P35439). Kind of assay: In vitro affinity of compound for the glycinergic site associated with NMDA receptor was assessed by inhibition of the binding of [3H]glycine.

The structures appear in SMILES notation.

For orientation: pKi means −log10 of the Ki, conventionally taken in molar units. A high value points to a low Ki. As for `O=C(/C=C/c1c(C(=O)O)[nH]c2cc(Cl)cc(Cl)c12)Nc1ccccc1`, the pKi came out at 8.5.
